# Measured affinities in a library of Ab-14 heavy chain variants

Data: MIT Lincoln Laboratory AlphaSeq set, Li et al. 2023, doi:10.1038/s41467-023-39022-2, as distributed in FLAb.

Target peptide (SARS-CoV-2 spike, HR2 region): PDVDLGDISGINAS

The variants keep the light chain, the linker and the frameworks of Ab-14 (scFv order VH, a (GGGGS)3 linker, VL).
VH: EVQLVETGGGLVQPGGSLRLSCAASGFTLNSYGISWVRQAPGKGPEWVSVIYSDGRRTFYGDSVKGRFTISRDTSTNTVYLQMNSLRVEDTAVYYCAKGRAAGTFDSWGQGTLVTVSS
VL: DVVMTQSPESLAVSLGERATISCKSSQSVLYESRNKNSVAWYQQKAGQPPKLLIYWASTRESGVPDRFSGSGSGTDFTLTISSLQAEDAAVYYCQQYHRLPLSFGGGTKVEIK

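These sequences belong to a second round, designed from the earlier measurements on random variants of the parent. Their group label is 14H_GPLM_Gen (GPLM: also part of the Gaussian process libraries; Gen: genetic algorithm; a sequence that several methods proposed may carry one label only). AlphaSeq pools MATa yeast showing the antibodies with MATalpha yeast showing the peptide. Pairs that bind mate more often; barcode pairs of the diploids are counted by sequencing. Scores were corrected for input abundance and mapped to Kd with protein pairs of known affinity run in the same pool. The assay was run in six technical replicates.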

Sequences are complete VH domains.
The read-out is the apparent dissociation constant on a log10 scale (nM): the lower, the stronger.
"nd" means that the variant was in the library but no mating with the target was seen in that replicate; the authors take this as a sign of poor binding, and no number exists.

| # | VH | log10 Kd (nM) by replicate | control signals |
|---|---|---|---|
| 1 | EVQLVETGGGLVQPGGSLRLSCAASGFSLNSYGISWVRQAPGKGPEWVSVIYSDGRRTFYVDSVKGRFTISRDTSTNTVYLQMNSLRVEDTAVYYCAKGRAAGTFDSWGQGTLVTVSS | 1.02 / nd / nd / 1.34 / nd / nd | 0 of 18 |
| 2 | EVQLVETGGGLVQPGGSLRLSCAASGFTLNSYGISWVRQAPGKGPEWVSVIYSDGMRTFYSDSVKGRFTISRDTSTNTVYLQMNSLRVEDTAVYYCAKGEAAGTFDSWGQGTLVTVSS | 2.95 / 0.74 / 1.24 / 0.33 / 1.41 / 0.75 | 0 of 18 |
| 3 | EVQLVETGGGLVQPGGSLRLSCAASGFTLESYGISWVRQAPGKGPEWVSVIYSDGRRTFYGDSVKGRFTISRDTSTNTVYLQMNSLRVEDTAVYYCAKGREAGTFDTWGQGTLVTVSS | -0.13 / -0.09 / -0.19 / -0.28 / 0.09 / 0.00 | 0 of 18 |
| 4 | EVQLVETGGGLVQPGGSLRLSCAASGFTLNEYGISWVRQAPGKGPEWVSVIYSDGRRTFYIDSVKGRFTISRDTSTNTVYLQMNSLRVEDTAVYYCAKGRTAGTFDSWGQGTLVTVSS | 0.26 / 0.41 / -0.19 / 0.28 / 0.73 / 0.45 | 0 of 18 |
| 5 | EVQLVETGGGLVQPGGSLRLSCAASGFSLNSYGISWVRQAPGKGPEWVSVIYADGRRTFYGDSVKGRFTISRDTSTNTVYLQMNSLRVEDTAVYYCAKGGAAGTFDSWGQGTLVTVSS | -0.19 / -0.13 / -0.02 / -0.50 / -0.25 / 0.19 | 0 of 18 |
| 6 | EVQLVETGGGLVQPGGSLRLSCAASGFQLNTYGISWVRQAPGKGPEWVSVIYSDGRRTFYGDSVKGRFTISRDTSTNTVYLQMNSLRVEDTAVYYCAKGRTAGTFDSWGQGTLVTVSS | nd / 1.42 / 1.32 / 0.61 / 0.63 / nd | 0 of 18 |
| 7 | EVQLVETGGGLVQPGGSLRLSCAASGFNLNSYGISWVRQAPGKGPEWVSVIYSDGRRTFYQDSVKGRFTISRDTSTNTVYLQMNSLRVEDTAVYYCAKGRTAGTFDSWGQGTLVTVSS | 0.65 / 1.59 / 0.91 / 0.97 / 0.73 / 1.38 | 1 of 18 (2.10) |
| 8 | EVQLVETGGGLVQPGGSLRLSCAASGFTLNSYGISWVRQAPGKGPEWVSVIYSDGRRTFYGDSVKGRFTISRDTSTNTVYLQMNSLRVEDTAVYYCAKGHVAGTFDSWGQGTLVTVSS | 1.28 / 1.96 / 1.30 / 0.98 / 1.15 / 1.39 | 0 of 18 |
| 9 | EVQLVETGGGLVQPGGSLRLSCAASGFSLNSYGISWVRQAPGKGPEWVSVIYSDGRRTFYADSVKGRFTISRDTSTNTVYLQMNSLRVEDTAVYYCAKGKAAGTFDSWGQGTLVTVSS | 1.14 / 0.45 / 0.25 / 0.41 / 0.83 / 0.95 | 0 of 18 |
| 10 | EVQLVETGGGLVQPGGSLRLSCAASGFSLNEYGISWVRQAPGKGPEWVSVIYSDGRRTFYGDSVKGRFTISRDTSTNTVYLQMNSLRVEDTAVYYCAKGQAAGTFDMWGQGTLVTVSS | 0.66 / 0.52 / 0.19 / 0.63 / 0.16 / 0.94 | 0 of 18 |
| 11 | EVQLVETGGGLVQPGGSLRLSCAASGFDLNSYGISWVRQAPGKGPEWVSVIYSDGRRTFYADSVKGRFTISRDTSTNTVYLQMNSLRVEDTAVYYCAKGRWAGTFDSWGQGTLVTVSS | 0.03 / 0.14 / 0.91 / 0.15 / 0.62 / 0.36 | 0 of 18 |
| 12 | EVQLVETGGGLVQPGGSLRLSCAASGFSLNEYGISWVRQAPGKGPEWVSVIYSDGRRTFYGDSVKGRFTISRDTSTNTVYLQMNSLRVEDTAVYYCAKGRLAGTFDSWGQGTLVTVSS | 0.26 / 0.16 / -0.14 / -0.22 / 0.02 / 0.05 | 0 of 18 |
| 13 | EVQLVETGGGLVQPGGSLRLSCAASGFTLNSYGISWVRQAPGKGPEWVSVIYADGRRTFYGDSVKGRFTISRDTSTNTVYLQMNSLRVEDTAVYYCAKGMAAGTFDSWGQGTLVTVSS | 1.76 / 0.93 / 1.47 / 0.38 / 0.17 / 0.33 | 0 of 18 |
| 14 | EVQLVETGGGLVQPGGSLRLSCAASGFSLNSYGISWVRQAPGKGPEWVSVIYSDGRRTFYGDSVKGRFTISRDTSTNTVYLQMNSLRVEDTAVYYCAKGSVAGTFDSWGQGTLVTVSS | 0.53 / -0.22 / -0.36 / -0.01 / -0.12 / 0.09 | 0 of 18 |
| 15 | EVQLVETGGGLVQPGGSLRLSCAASGFTLNSYGISWVRQAPGKGPEWVSVIYSDGRRTFYIDSVKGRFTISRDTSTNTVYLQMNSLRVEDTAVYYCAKGRTAGTFDSWGQGTLVTVSS | 1.13 / 1.29 / 1.54 / 1.60 / 1.66 / 1.83 | 0 of 18 |
| 16 | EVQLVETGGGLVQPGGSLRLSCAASGFSLNEYGISWVRQAPGKGPEWVSVIYSDGRRTFYTDSVKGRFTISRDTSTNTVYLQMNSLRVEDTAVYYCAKGRFAGTFDSWGQGTLVTVSS | -0.03 / -0.05 / -0.16 / -0.29 / 0.18 / 0.21 | 2 of 18 (2.63) |
| 17 | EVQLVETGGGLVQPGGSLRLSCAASGFSLNSYGISWVRQAPGKGPEWVSVIYSDGRRTFYQDSVKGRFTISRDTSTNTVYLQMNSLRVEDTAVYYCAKGRVAGTFDSWGQGTLVTVSS | 0.59 / 0.60 / 0.66 / 0.30 / 0.26 / 0.13 | 1 of 18 (1.85) |
| 18 | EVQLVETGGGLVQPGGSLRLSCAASGFELNSYGISWVRQAPGKGPEWVSVIYSDGRRTFYGDSVKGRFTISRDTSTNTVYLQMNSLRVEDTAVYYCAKGRTAGTFDDWGQGTLVTVSS | 1.38 / 1.17 / 0.32 / 0.55 / 0.41 / 1.08 | 0 of 18 |
| 19 | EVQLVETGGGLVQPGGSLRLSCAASGFSLNEYGISWVRQAPGKGPEWVSVIYSDGRRTFYGDSVKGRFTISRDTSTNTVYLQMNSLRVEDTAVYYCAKGSAAGTFDTWGQGTLVTVSS | 0.05 / -0.03 / 0.07 / 0.00 / 0.08 / -0.11 | 2 of 18 (2.50) |
| 20 | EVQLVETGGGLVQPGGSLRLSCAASGFSLNTYGISWVRQAPGKGPEWVSVIYSDGRRTFYSDSVKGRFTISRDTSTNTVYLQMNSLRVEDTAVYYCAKGEAAGTFDSWGQGTLVTVSS | nd / nd / nd / -0.80 / -0.63 / nd | 0 of 18 |
| 21 | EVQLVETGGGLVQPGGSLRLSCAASGFTLNEYGISWVRQAPGKGPEWVSVIYSDGRRTFYSDSVKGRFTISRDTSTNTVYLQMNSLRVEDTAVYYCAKGQAAGTFDKWGQGTLVTVSS | 0.32 / 0.01 / 0.09 / 0.30 / 0.07 / 0.13 | 0 of 18 |
| 22 | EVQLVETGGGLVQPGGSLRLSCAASGFTLDSYGISWVRQAPGKGPEWVSVIYSDGRRTFYADSVKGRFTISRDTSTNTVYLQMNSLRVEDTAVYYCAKGREAGTFDSWGQGTLVTVSS | 0.68 / 0.31 / -0.23 / 0.02 / 0.21 / 0.35 | 0 of 18 |
| 23 | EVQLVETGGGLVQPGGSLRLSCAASGFSLNEYGISWVRQAPGKGPEWVSVIYSDGKRTFYGDSVKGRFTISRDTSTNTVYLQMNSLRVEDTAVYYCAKGKAAGTFDSWGQGTLVTVSS | 0.62 / -0.09 / 0.80 / -0.07 / 1.10 / 0.17 | 0 of 18 |
| 24 | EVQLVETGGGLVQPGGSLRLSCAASGFSLNSYGISWVRQAPGKGPEWVSVIYSDGRRTFYADSVKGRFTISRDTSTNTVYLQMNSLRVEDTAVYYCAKGVNAGTFDSWGQGTLVTVSS | 0.10 / 0.09 / 0.56 / -0.12 / 0.50 / 1.46 | 0 of 18 |

Picked from the list: the 2 lowest averages where every replicate gave a value.

VH,log10 Kd (nM) by replicate,control signals
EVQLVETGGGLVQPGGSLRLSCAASGFSLNSYGISWVRQAPGKGPEWVSVIYADGRRTFYGDSVKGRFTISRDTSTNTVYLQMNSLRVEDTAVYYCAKGGAAGTFDSWGQGTLVTVSS,-0.19 / -0.13 / -0.02 / -0.50 / -0.25 / 0.19,0 of 18
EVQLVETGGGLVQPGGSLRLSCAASGFTLESYGISWVRQAPGKGPEWVSVIYSDGRRTFYGDSVKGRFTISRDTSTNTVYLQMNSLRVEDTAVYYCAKGREAGTFDTWGQGTLVTVSS,-0.13 / -0.09 / -0.19 / -0.28 / 0.09 / 0.00,0 of 18

Background: pairings of all heavy chain designs with three empty control strains gave a value in 1% of cases (median 2.08, 5th percentile 0.84). Values in that range, when seen in few replicates, are hard to tell from nonspecific mating. The control count says in how many pairings with the empty strains this scFv gave a signal, with their mean in brackets.
Values of this round are not directly comparable with the first-round values of the same sequences.
The parent sequence was in this pool as ten entries: three were never detected, three once, and four in most replicates, with averages from 0.34 to 2.37.
In the paper, a design with two or fewer of six values counts as a poor binder.